{"source": "patent US10221162B2", "about": "“Triazole agonists of the APJ receptor” (priority 2015, dated 2019)", "key": {"[1]": {"target": "human APJ-AT1R (angiotensin Type 1) double stable CHO cell line (Homo sapiens (Human), UniProt P30556+P35414)", "details": "different concentrations of AngII with fixed concentration of pyr apelin-13", "experimental": "(§1) The function of the inositol phosphate accumulation (IP1) was measured by Time-resolved fluorescence resonance energy (TR-FRET) at 620 nm and 665 nm respectively."}, "[2]": {"target": "human APJ receptor expressed in the CHO cell line (Homo sapiens (Human), UniProt P35414)", "details": "different concentrations of AngII with fixed concentration of pyr apelin-13; human APJ receptor expressed alone in CHO", "experimental": "as §1"}}}
{"substance": "pyroglutamated apelin-13 [pyr apelin-13]", "values": [{"measurement": "positive cooperativity on AT1R (IP1 accumulation)", "setting": "[1]", "value": "induces the positive cooperativity on the AT1R"}, {"measurement": "positive cooperativity (IP1 accumulation)", "setting": "[2]", "value": "no positive cooperativity observed"}]}
